# Test results taken from patent publication US6953812B2, “Glucagon antagonists/inverse agonists” (Novo Nordisk, Inc., priority 2000, dated 2005).
# Protein sequences, listed by entry. Tags and fused reporters are not part of them. Residues count along the entry.
# UniProt P47871, 26-477: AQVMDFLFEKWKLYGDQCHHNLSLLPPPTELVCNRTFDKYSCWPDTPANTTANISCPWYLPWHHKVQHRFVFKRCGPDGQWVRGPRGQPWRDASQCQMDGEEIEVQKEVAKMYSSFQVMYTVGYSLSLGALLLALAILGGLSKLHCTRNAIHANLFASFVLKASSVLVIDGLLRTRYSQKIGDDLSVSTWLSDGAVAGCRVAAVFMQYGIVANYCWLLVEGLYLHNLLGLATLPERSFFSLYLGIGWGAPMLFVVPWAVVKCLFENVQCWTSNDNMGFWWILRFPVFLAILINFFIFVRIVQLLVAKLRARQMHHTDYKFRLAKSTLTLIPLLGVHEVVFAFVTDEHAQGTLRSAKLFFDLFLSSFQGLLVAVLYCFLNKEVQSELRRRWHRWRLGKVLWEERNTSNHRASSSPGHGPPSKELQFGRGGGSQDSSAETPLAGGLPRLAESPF
# Legend:
# human glucagon receptor = target: T1, human glucagon receptor (Homo sapiens, UniProt P47871); assay: Glucagon Binding Assay (II)
# T1 construct: expressed in transfected cells; host or cells: BHK (baby hamster kidney) cells, membrane preparation
# Protocol: Glucagon Binding Assay (II)
# BHK (baby hamster kidney cell line) cells are transfected with the human glucagon receptor and a membrane preparation of the cells is prepared.
# All steps in the membrane preparation are kept on ice or performed at 4° C. BHK cells are harvested and centrifuged. The pellet is resuspended in homogenisation buffer (25 mM HEPES, pH=7.4, 2.5 mM CaCl2, 1.0 mM MgCl2, 250 mg/L bacitracin, 0.1 mM Pefabloc), homogenised 2×10 sec using Polytron 10-35 homogenizer (Kinematica) and added the same amount of homogenisation buffer as used for resuspension. After centrifugation (15 min at 2000×g) the supernatant is transferred to cold centrifuge tubes and centrifuged for 45 min at 40.000×g. The pellet is resuspended in homogenisation buffer, homogenised 2×10 sec (Polytron) and additional homogenisation buffer is added. The suspension is centrifuged for 45 min at 40.000×g and the pellet is resuspended in resuspension buffer (25 mM HEPES, pH=7.4, 2.5 mM CaCl2, 1.0 mM MgCl2) and homogenised 2×10 sec. (Polytron). […]
# The glucagon binding assay is carried out in opti plates (Polystyrene Microplates, Packard). […] The opti plates are counted in a Topcounter. Non-specific binding is determined with 500 nM of glucagon.
# human GIP receptor = target: T2, human GIP receptor (Homo sapiens, UniProt P48546); assay: GIP Binding Assay
# T2 construct: expressed in transfected cells; host or cells: BHK (baby hamster kidney) cells, membrane preparation
# T2 sequence (P48546 22-466): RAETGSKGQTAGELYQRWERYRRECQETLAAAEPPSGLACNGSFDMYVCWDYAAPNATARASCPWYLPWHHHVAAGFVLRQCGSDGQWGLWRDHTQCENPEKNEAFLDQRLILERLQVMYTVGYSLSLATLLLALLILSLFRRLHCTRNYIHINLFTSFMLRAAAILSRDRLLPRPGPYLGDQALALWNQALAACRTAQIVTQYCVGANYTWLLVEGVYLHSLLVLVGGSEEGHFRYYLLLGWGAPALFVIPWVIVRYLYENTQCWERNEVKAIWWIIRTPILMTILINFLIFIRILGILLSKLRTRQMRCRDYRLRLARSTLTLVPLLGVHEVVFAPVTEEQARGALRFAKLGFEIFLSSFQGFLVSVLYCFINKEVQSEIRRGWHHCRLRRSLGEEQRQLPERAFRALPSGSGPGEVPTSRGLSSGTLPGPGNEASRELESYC
# Protocol: BHK (baby hamster kidney cell line) cells are transfected with the human GIP receptor and a membrane preparation of the cells is prepared.
# All steps in the membrane preparation are kept on ice or performed at 4° C. BHK cells are harvested and centrifuged. The pellet is resuspended in homogenisation buffer (25 mM) HEPES, pH=7.4, 2.5 mM CaCl2, 1.0 mM MgCl2, 250 mg/L bacitracin, 0.1 mM Pefabloc), homogenised 2×10 sec using Polytron 10-35 homogenizer (Kinematica) and added the same amount of homogenisation buffer as used for resuspension. After centrifugation (15 min at 2000×g) the supernatant is transferred to cold centrifuge tubes and centrifuged for 45 min at 40.000×g. The pellet is resuspended in homogenisation buffer, homogenised 2×10 sec (Polytron) and additional homogenisation buffer is added. The suspension is centrifuged for 45 min at 40.000×g and the pellet is resuspended in resuspension buffer (25 mM HEPES, pH=7.4, 2.5 mM CaCl2, 1.0 mM MgCl2) and homogenised 2×10 sec. (Polytron). […] Stabilisation buffer (25 mM HEPES, pH=7.4, 2.5 mM CaCl2, 1.0 mM MgCl2, 1% bovine serum albumin, 500 mg/L bacitracin, 2.5 M sucrose) is added and the membrane preparation is stored at −80° C.
# The GIP binding assay is carried out in opti plates (Polystyrene Microplates, Packard). […] The opti plates are counted in a Top-counter. Non-specific binding is determined with 500 nM of GIP.
smiles,measurement,setting,value
O=C(NC[C@@H](O)C(=O)O)c1ccc(CN(C(=O)Nc2cc(F)cc(C(F)(F)F)c2)c2ccc(C3=CCCCC3)cc2)cc1 [Example 28],IC50,human glucagon receptor,19 nM
same,IC50,human GIP receptor,364 nM
